# “And” between values parts separate entries of the source, which are not always exact repeats. Identical values can stand only once. The list shows a part of the results, in another mix than the full data. The source made the active and inactive calls.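 How the source made its calls: active means inhibition above its plate's cutoff, the mean of tested wells on that plate plus 3 SD (cut at about 29% in these data); inactive means the rest.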
# Chains of the proteins cited; added tags and fusions are not shown.
# UniProt P32245, whole entry, looked up: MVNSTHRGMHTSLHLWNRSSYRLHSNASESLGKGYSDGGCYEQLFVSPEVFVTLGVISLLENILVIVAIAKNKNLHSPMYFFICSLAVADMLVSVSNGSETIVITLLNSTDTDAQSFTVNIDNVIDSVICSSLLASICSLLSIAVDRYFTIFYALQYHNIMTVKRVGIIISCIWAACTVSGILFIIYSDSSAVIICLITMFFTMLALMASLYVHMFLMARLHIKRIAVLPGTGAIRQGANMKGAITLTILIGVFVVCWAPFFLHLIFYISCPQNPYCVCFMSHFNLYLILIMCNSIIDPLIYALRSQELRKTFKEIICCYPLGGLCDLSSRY
# Target: Melanocortin receptor 4 (Homo sapiens) (UniProt P32245)
# Test: blockers of MC4R Gs-cAMP response – cell-based, TR-FRET, antagonist arm of biased-ligand search, primary screen (AID 540295);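 further: 0% = Melanotan II alone and 100% = Melanotan II plus saturating MCL0020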
# Conditions: MC4R-expressing cells, MTII-stimulated cAMP, LANCE TR-FRET; at 6.5 µM; active compounds read high
row,SMILES,inhibition
1,O=P1(N(CCCl)CCCl)NCCC(C(F)(F)F)O1 (configuration not stated),inactive: -0.42%
2,CCOP(=O)(Nc1ccc(C)cn1)OCC,inactive: 1.53%
3,CN(CCCl)Cc1cc(Cl)c(NC2=NCCN2)c(Cl)c1,inactive: 7.83%
4,CCOP(=O)(NC(=NC(C)c1ccccc1)NC(C)c1ccccc1)OCC (configuration not stated),inactive: 2.98%
5,CCC1=CC2Cc3nc4ccc(Cl)cc4c(N)c3C(C1)C2 (configuration not stated),inactive: 1.65%
6,O=P1(Nc2ccccn2)COc2ccccc2OC1,inactive: 0.1%
7,CCOP(=O)(Nc1cccc2ccccc12)OCC,inactive: 7.41%
8,COc1cc(C2NCCC3(OCCO3)C2(C)C)cc(OC)c1OC (configuration not stated),inactive: -4.52%
9,CCCOP(=S)(Nc1nc(N)cc(=O)[nH]1)OCCC,inactive: 1.98%
10,Nc1cccc2c([As](=O)(O)O)cccc12,inactive: 20.7%
11,Cc1ccc(NCCc2c([N+](=O)[O-])cc([N+](=O)[O-])cc2[N+](=O)[O-])cc1,inactive: 21.8%
12,Cc1cccc(OCC(=O)OC2CN3CCC2CC3)c1 (configuration not stated),inactive: 2.35%
13,O=[As](O)(c1cccc(O)c1)c1cccc(O)c1,inactive: 3.52%
14,CS(=O)(=O)c1ccc(Cl)c(NC(=O)COC(=O)C(O)(c2ccccc2)c2ccccc2)c1,inactive: 7.43%
15,O=[As](O)(O)c1cccnc1,inactive: 6.54%
16,COc1cc(C(=O)NCC2(N3CCOCC3)CCCCC2)cc(Cl)c1OC(C)C,inactive: 3.55%
17,O=C(OC1CN2CCC1CC2)c1ccc(Cl)cc1 (configuration not stated),inactive: 4.53%
18,CN(C(=O)Cc1ccc(Cl)c(Cl)c1)[C@H]1CC[C@@]2(CCCO2)C[C@@H]1N1CCCC1,inactive: 8.61%
19,O=[N+]([O-])c1ccc2c(c1)nnn2O,inactive: 7.86%
20,CN(C)C(=O)c1cc([N+](=O)[O-])cc2c1-c1c(cc([N+](=O)[O-])cc1[N+](=O)[O-])C2=O,inactive: -23.6%
21,CN(C(=O)Cc1ccccc1)[C@@H]1CC[C@]2(CCCO2)C[C@H]1N1CCCC1,inactive: 15.1%
22,CCOP1(=S)c2c(C)nn(CCC#N)c2N=C(c2ccc(F)cc2)N1C (configuration not stated),inactive: -6.12%
23,N#CCCN(C(=O)COC(=O)C(O)(c1ccccc1)c1ccccc1)c1ccc(F)cc1,inactive: 1.49%
24,COc1ccc(CC(C)NCC(O)c2ccc(O)c(NC=O)c2)cc1 (configuration not stated),inactive: -4.02% and inactive: -5.29%
25,NC(=O)Nc1ccc([As](=O)(O)O)cc1,inactive: 1.21%
26,O=C(O)COc1ccc([As](=O)(O)O)cc1[N+](=O)[O-],inactive: 1.59%
27,Nc1ccccc1[As](=O)(O)c1ccccc1,inactive: 9.97%

# Reference: PubChem BioAssay AID540295 (The Scripps Research Institute Molecular Screening Center, 2011)
